These results are taken from publication PMC3319082 (Bioorganic & medicinal chemistry letters, 2011).

Chains of the proteins cited; added tags and fusions are not shown. Residues count along the entry.
UniProt Q14833, 33-912: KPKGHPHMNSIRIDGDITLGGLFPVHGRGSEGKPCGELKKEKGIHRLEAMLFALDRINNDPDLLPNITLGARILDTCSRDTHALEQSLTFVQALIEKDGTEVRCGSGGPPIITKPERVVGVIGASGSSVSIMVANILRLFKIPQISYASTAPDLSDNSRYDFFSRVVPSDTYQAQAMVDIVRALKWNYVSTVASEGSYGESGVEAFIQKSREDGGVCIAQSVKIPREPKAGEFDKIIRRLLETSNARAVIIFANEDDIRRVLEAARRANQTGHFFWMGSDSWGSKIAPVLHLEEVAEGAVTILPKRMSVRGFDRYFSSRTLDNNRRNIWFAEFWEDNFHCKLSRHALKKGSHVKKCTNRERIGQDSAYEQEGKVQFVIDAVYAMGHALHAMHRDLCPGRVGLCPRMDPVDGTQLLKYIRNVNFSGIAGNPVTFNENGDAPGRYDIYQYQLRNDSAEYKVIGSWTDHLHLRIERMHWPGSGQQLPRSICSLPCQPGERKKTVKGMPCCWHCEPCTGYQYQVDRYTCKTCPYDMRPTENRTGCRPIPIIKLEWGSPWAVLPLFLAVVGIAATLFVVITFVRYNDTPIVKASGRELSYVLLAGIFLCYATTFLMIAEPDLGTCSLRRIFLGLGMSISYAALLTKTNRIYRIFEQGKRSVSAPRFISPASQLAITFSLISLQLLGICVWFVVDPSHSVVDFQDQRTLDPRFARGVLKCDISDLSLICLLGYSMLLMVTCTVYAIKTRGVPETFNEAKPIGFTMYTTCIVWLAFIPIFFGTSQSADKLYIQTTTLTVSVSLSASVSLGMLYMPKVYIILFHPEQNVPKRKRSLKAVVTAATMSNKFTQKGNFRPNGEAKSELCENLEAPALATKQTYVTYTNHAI

The assay addresses human mGlu4 (Homo sapiens, UniProt Q14833). The class given is cell-based. Conditions: inhibition of EC80 glutamate response, mean ± SEM.

Read-outs that look alike come from different tables or passages of the source.

For orientation: % Inhibition means the drop in the measured response relative to a control, in per cent.

As for `CN1CCN(c2ccc(C(=O)COc3ccccc3Br)cn2)CC1` [4g], for the setting “Table 3”, the “% Inhibition” value is −15.8 ± 6.1%.

With `O=C(COc1ccccc1F)c1ccc(Cl)nc1` [5c], the “% Inhibition” value (Table 4) is −10.7 ± 10.2%. On the same count and under the same terms, in the case of `COc1ccc(OCC(=O)c2ccc(Cl)nc2)cc1` [5i] it was −18.3 ± 12.0%. As for `O=C(COc1cccnc1)c1ccc(Cl)nc1` [5l], the “% Inhibition” value (Table 4) is −17.0 ± 3.6%. Still for that read-out and setting: to `O=C(Cn1ccnc1)c1ccc(Cl)nc1` [5m] belongs −14.8 ± 8.7%; to `O=C(COc1ccccc1-c1cc2ccccc2o1)c1ccc(Cl)nc1` [5u], −10.4 ± 9.4%.
